From patent US20170188606A1, “COMPOUNDS, COMPOSITIONS, AND METHODS FOR REDUCING OR E[…] TASTE” (Chromocell Corporation, priority 2014, published 2017)

Test system: bitter taste receptor (T2R)
Details: Compound 1 3.2 mM in the presence of 825 μM rebaudioside A; HEPES buffer; FIG. 1

CN[C@@H](Cc1c[nH]c2ccccc12)C(=O)O [Compound 1, N-methyl-L-tryptophan]
effect on rebaudioside A response (fluorescence): Inhibition of the rebaudioside A response was observed
